Drawing on PubChem BioAssay AID602163 (The Scripps Research Institute Molecular Screening Center, 2012), this text covers activation for 62 molecules.

The entries are a selection whose mix differs from that of the whole data set. Active and inactive are the calls of the source. No stated cut-off is given here; in the data, active means activation above about 7.5%; inactive means the rest.

The test system of this test is Methionine sulfoxide reductase A (Bos taurus). The test is described as follows: activation of methionine sulfoxide reductase A – biochemical, absorbance, bovine, HTS, primary screen (AID 602163).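 Further: 0% = vehicle and 100% = reference activator.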 To be noted: purified bovine MsrA, absorbance read-out; at 10.6 µM; active compounds read high.
Regarding `CC(C)=N/N=C(\N)N[N+](=O)[O-]`, the activation was inactive: -1.3%.
As for `CC1CCN(C(=O)Oc2c(Cl)cc(Cl)c3cccnc23)CC1`, the figure is inactive: -2.15%.
With `c1cc(-c2nn[nH]n2)ccc1-c1nn[nH]n1`, the activation was inactive: -2.6%.
As to `C[N+]1=C2C=CC=CC=C2SC12C([N+](=O)[O-])=CC([N+](=O)[O-])=C[C-]2[N+](=O)[O-]` (configuration not stated), the activation was inactive: 0.17%.
In the case of `Nc1ccc([As](=O)(O)c2ccc(N)cc2)cc1`, the activation was inactive: -14.5%.
In the case of `CCN(/C(=N/P(=O)(N1CCOCC1)N1CCOCC1)N1CCOCC1)c1ccc(OC)cc1` it was inactive: -3.29%; in that of `O=[N+]([O-])c1cccc2n[nH]nc12`, inactive: -3.73%; in that of `CC(=O)N1C2C3N(C(C)=O)C1C1N(C(C)=O)C(C(N1C(C)=O)N3C(C)=O)N2C(C)=O`, inactive: 0.96%.
In the case of `CCc1nc2c(n1)c1c(non1O)c1c2no[n+]1[O-]` it was inactive: -2.48%.
In the case of `O=[N+]([O-])c1cc([N+](=O)[O-])c(CCNc2ccccc2)c([N+](=O)[O-])c1` it was inactive: 0.14%; in that of `Cc1ccc(NP(=O)(Oc2ccccc2)Oc2ccccc2)nc1`, inactive: 2.61%.
Regarding `COc1ccc(C2=NCC(CBr)S2)cc1` (configuration not stated), the activation was inactive: -3.15%.
As for `COC(=O)C1(C)COP(=O)(Nc2ccccc2)OC1` (configuration not stated), the figure is inactive: -3.63%; as for `O=[N+]([O-])c1cccc(NC2=NCC(CBr)S2)c1` (configuration not stated), inactive: -5%.
Take `O=C(O)CNc1ccc([As](=O)(O)O)cc1`: the activation is inactive: 1.76%.
In the case of `CC(C)(C)C(=O)NC(Sc1ccncn1)C(Cl)(Cl)Cl` (configuration not stated) it was active: 9.3%; in that of `O=[N+]([O-])c1ncn(CCn2ncnc2[N+](=O)[O-])n1`, inactive: -2.84%.
With `O=C(Nc1cc([As](=O)(O)O)ccc1O)c1ccccc1`, the activation is inactive: -3.64%.
As for `O=P1(N(CCCl)CCCl)OCCCS1` (configuration not stated), the figure is inactive: -3.81%; as for `O=[N+]([O-])c1ccc(Nc2ccc(Oc3ccc([N+](=O)[O-])cc3[N+](=O)[O-])cc2)c([N+](=O)[O-])c1`, inactive: 0.23%; as for `O=P(Nc1ccccn1)(c1cccc2ccccc12)c1cccc2ccccc12`, inactive: -1.52%.
For the molecule `Cc1cc(SC(NC=O)C(Cl)(Cl)Cl)ncn1` (configuration not stated), the activation is inactive: -1.18%.
On to `CCOC(=O)Nc1cccc([As](=O)(O)O)c1`, for which the activation was inactive: -12%.
As for `Cc1cc(SC(NC(=O)c2ccccc2)C(Cl)(Cl)Cl)nc(C(C)C)n1` (configuration not stated), the figure is inactive: -11.4%; as for `CCCCOc1ccc(C(=O)NCC2(N3CCCCC3)CCCCC2)cc1OC`, inactive: -0.64%; as for `COP(=O)(OC)N1CC1c1ccccc1` (configuration not stated), inactive: -1.65%.
In the case of `CC1CCNP(=O)(N(CCCl)CCCl)O1` (configuration not stated) it was inactive: 2.12%; in that of `CCOC(=O)Nc1ccc([As](=O)(O)O)c(O)c1`, inactive: -2.43%.
In the case of `O=C(O)C(O)c1ccc(N(CCCl)CCCl)cc1` (configuration not stated) it was inactive: -3.82%; in that of `CCC(C)N(CC(C)C)C(=S)SC(NC(C)=O)C(Cl)(Cl)Cl` (configuration not stated), inactive: 0.64%.
On to `CCOC(=O)c1ccc(NC(=O)C(C)(CCl)SC)cc1` (configuration not stated), for which the activation was inactive: -4.26%.
As for `CSc1ccc(Nc2c([N+](=O)[O-])cc([N+](=O)[O-])cc2[N+](=O)[O-])cc1`, the figure is inactive: 3.19%; as for `O=C(OC1CN2CCC1CC2)c1cccc([N+](=O)[O-])c1` (configuration not stated), inactive: -3.11%; as for `O=C(Nc1ccncc1[N+](=O)[O-])c1ccc([N+](=O)[O-])cc1[N+](=O)[O-]`, inactive: 0.95%.
In the case of `O=C(COc1ccccc1)OC1CN2CCC1CC2` (configuration not stated) it was inactive: -3.24%.
As for `O=C(O)C(=O)c1ccc(N(CCCl)CCCl)cc1`, the figure is inactive: -4.3%.
Turning to `COC(=O)C1(C)COP(=O)(N2CCCC2)OC1` (configuration not stated), the activation was inactive: -1.82%.
In the case of `COP1(=S)c2c(C)nn(CCC#N)c2N=C(c2ccc(F)cc2)N1C` (configuration not stated) it was inactive: -1.59%.
Turning to `COc1ccc(N/C(=N/P(=O)(N2CCOCC2)N2CCOCC2)N2CCOCC2)cc1`, the activation was inactive: -2.47%.
In the case of `O=[N+]([O-])c1cc(Oc2ccc([N+](=O)[O-])cc2C(F)(F)F)cc([N+](=O)[O-])c1` it was inactive: 0.99%; in that of `COc1cc(I)ccc1[As](=O)(O)O`, inactive: -2.14%.
`COc1ccc2nc(NP(=O)(c3ccccc3)c3ccccc3)sc2c1`: the activation was inactive: -4.01%.
As to `O=P1(N(CCCl)CCCl)OCCCN1CCCl` (configuration not stated), the activation was inactive: 1.08%.
For `O=P1(N(CCCl)CCCl)Nc2ccccc2N1`, the activation is inactive: -4.57%.
`Cc1cc(=O)[nH]c(N[N+](=O)[O-])n1`: the activation is inactive: -9.87%.
For the molecule `O=C(OC1CN2CCC1CC2)C12CC3CC(CC(C3)C1)C2` (configuration not stated), the activation is inactive: -1.52%.
Consider `Cc1c2c(nc3ccccc13)SC(C(Cl)Cl)C2` (configuration not stated), for which the activation was inactive: -6.02%.
Regarding `O=[N+]([O-])c1cc([N+](=O)[O-])c(-c2ccn[nH]2)s1`, the activation was inactive: -0.22%.
As for `CC(C)NC(=O)NP(=O)(Oc1ccccc1)Oc1ccccc1`, the figure is inactive: -12.6%; as for `O=C(OC1CN2CCC1CC2)c1cccc2[nH]cnc12` (configuration not stated), inactive: -6.77%; as for `CCN(CC)C(=S)SC(NC=O)C(Cl)(Cl)Cl` (configuration not stated), inactive: -2.58%.
Take `COC(=O)C1(C)COP(=O)(N2CCCCCC2)OC1` (configuration not stated): the activation was inactive: -2.21%.
In the case of `CC(C)c1ccc(OP(=O)(Nc2ccccn2)Oc2ccccc2F)cc1` (configuration not stated) it was inactive: -11.7%; in that of `ClCCSc1nnc(-c2cccnc2)o1`, inactive: 1.24%.
As to `Cc1ccc2nc3c(c(C)c2c1)CC(C(Cl)Cl)S3` (configuration not stated), the activation is inactive: -2.32%.
In the case of `[N-]=[N+]=NC1CCCCC1NC(=O)c1cc([N+](=O)[O-])cc([N+](=O)[O-])c1` (configuration not stated) it was inactive: 1.34%; in that of `Cc1ccc(OP(=O)(Nc2ccc([N+](=O)[O-])cn2)Oc2ccc(C)cc2)cc1`, inactive: -4.92%.
With `O=[N+]([O-])c1ccc(-c2cc([N+](=O)[O-])c(O)c([N+](=O)[O-])c2)cc1`, the activation is inactive: -10.1%.
In the case of `COc1cc(C(=O)NCC2(N3CCOCC3)CCCCC2)ccc1OCC(C)C` it was inactive: -9.92%; in that of `O=[As](O)(c1ccc(O)cc1)c1ccccc1O`, inactive: -2.1%; in that of `C[As](=O)(O)c1cccc(C(=O)O)c1`, inactive: 3.36%.
As for `CN(C(=O)Cc1ccc(Cl)c(Cl)c1)[C@H]1CC[C@@]2(CCCO2)C[C@@H]1N1CCCC1`, the figure is inactive: 1.74%.
